Experimental data from article PMC6816013 (Journal of Medicinal Chemistry, 2019).

The chains behind the UniProt entries cited, without tags or fusion partners. Where a name states a change or a piece, a line headed by the entry shows the natural chain unless it says otherwise. Residues count along the entry.
UniProt P02768, 25-609: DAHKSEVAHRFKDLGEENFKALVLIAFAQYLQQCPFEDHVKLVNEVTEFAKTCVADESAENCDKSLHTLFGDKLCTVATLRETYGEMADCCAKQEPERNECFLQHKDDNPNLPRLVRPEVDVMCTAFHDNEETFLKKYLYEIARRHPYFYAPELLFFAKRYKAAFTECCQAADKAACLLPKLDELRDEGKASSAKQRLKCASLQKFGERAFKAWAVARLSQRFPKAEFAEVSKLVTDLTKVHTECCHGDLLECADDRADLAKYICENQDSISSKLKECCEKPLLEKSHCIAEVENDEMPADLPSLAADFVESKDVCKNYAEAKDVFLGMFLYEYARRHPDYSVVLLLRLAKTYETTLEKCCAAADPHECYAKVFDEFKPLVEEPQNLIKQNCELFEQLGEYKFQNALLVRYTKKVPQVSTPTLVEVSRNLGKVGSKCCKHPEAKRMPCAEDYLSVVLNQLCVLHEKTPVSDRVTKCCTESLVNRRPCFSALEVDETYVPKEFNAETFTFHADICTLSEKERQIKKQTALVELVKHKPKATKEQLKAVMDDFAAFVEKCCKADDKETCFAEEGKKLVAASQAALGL
UniProt Q12809: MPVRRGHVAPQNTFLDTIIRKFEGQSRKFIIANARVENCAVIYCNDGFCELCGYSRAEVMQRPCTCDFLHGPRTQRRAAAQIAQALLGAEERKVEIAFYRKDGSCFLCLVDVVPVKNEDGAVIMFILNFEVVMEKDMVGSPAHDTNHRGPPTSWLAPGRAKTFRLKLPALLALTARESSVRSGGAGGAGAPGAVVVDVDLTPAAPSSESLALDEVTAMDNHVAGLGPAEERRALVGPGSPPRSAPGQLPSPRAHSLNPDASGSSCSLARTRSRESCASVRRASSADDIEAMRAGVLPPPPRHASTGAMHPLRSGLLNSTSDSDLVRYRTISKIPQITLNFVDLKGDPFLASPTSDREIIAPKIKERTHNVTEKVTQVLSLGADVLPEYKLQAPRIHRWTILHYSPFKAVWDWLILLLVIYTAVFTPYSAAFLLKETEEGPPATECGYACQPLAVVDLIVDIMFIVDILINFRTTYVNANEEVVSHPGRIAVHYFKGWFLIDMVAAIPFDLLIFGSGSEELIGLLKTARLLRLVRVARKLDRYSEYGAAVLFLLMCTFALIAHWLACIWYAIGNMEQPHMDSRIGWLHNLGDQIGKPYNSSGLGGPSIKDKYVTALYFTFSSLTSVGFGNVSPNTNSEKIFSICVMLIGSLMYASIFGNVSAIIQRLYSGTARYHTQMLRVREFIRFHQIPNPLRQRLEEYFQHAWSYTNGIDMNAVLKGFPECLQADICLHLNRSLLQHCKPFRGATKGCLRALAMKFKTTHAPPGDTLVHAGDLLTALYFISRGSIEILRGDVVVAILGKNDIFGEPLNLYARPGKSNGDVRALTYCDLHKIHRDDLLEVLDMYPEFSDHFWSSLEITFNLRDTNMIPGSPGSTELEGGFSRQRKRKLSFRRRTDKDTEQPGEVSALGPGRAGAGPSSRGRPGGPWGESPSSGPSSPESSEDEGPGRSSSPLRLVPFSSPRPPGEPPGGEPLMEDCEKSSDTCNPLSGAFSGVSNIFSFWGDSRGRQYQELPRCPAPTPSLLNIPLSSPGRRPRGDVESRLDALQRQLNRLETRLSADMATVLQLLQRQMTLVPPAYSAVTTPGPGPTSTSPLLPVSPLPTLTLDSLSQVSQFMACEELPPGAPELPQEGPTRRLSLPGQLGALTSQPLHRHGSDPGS

Target: HSA (Homo sapiens, UniProt P02768)
Assay: HSA binding (plasma protein binding)
Conditions: not given

| SMILES | HSA binding [%] |
| --- | --- |
| c1cc(Nc2nccc(-c3sc(C4CCNCC4)nc3C3CC3)n2)ncn1 [Compound 58, 4-(4-Cyclopropyl-2-(piperidin-4-yl)thiazol-5-yl)-N-(pyrimidin-4-yl)pyrimidin-2-amine Hydrochloride] | 93 |

Same assay, conditions: HSA

| SMILES | HSA binding [%] |
| --- | --- |
| Fc1ccc(-c2nc(N3CCOCC3)sc2-c2ccnc(Nc3ccc(N4CCNCC4)cc3)n2)cc1 [Compound 9, 4-[4-(4-Fluorophenyl)-2-(morpholin-4-yl)-1,3-thiazol-5-yl]-N-[4-(piperazin-1-yl)phenyl]pyrimidin-2-amine Trifluoroacetate] | 97 |
| Fc1ccc(-c2nc(N3CCCC3)sc2-c2ccnc(Nc3ccc(N4CCNCC4)cc3)n2)cc1 [Compound 10, 4-[4-(4-Fluorophenyl)-2-(pyrrolidin-1-yl)-1,3-thiazol-5-yl]-N-[4-(piperazin-1-yl)phenyl]pyrimidin-2-amine Trifluoroacetate] | 98 |
| CN1CCN(c2ccc(Nc3nccc(-c4sc(N)nc4-c4ccc(F)cc4)n3)cc2)CC1 [Compound 11, 4-[2-Amino-4-(4-fluorophenyl)-1,3-thiazol-5-yl]-N-[4-(4-methylpiperazin-1-yl)phenyl]pyrimidin-2-amine Trifluoroacetate] | 97 |
| O=C(Nc1nc(-c2ccc(F)cc2)c(-c2ccnc(Nc3ccc(N4CCNCC4)cc3)n2)s1)C1CC1 [Compound 15, N-[4-(4-Fluorophenyl)-5-{2-[4-(piperazin-1-yl)anilino]pyrimidin-4-yl}-1,3-thiazol-2-yl]cyclopropanecarboxamide Trifluoroacetate] | 92 |
| CN1CCC(C(=O)Nc2nc(-c3ccc(F)cc3)c(-c3ccnc(Nc4ccc(N5CCNCC5)cc4)n3)s2)CC1 [Compound 16, N-[4-(4-Fluorophenyl)-5-{2-[4-(piperazin-1-yl)anilino]pyrimidin-4-yl}-1,3-thiazol-2-yl]-1-methylpiperidine-4-carboxamide Trifluoroacetate] | 97 |
| CCCS(=O)(=O)Nc1nc(-c2ccc(F)cc2)c(-c2ccnc(Nc3ccc(N4CCNCC4)cc3)n2)s1 [Compound 17, N-[4-(4-Fluorophenyl)-5-{2-[4-(piperazin-1-yl)anilino]pyrimidin-4-yl}-1,3-thiazol-2-yl]propane-1-sulfonamide Trifluoroacetate] | 98 |
| O=S(=O)(Nc1nc(-c2ccc(F)cc2)c(-c2ccnc(Nc3ccc(N4CCNCC4)cc3)n2)s1)C1CCNCC1 [Compound 18, N-[4-(4-Fluorophenyl)-5-{2-[4-(piperazin-1-yl)anilino]pyrimidin-4-yl}-1,3-thiazol-2-yl]piperidine-4-sulfonamide Trifluoroacetate] | 96 |
| CCOc1nccc(Nc2nccc(-c3sc(C4CCNCC4)nc3-c3ccc(F)cc3)n2)n1 [Compound 30, N-(2-Ethoxypyrimidin-4-yl)-4-[4-(4-fluorophenyl)-2-(piperidin-4-yl)-1,3-thiazol-5-yl]pyrimidin-2-amine Trifluoroacetate] | 94 |
| Oc1cc(Nc2nccc(-c3sc(C4CCNCC4)nc3-c3ccc(F)cc3)n2)ccn1 [Compound 33, 4-({4-[4-(4-Fluorophenyl)-2-(piperidin-4-yl)-1,3-thiazol-5-yl]pyrimidin-2-yl}amino)pyridin-2-ol Trifluoroacetate] | 90 |
| COc1cc(Nc2nccc(-c3sc(C4CCNCC4)nc3-c3ccc(F)cc3)n2)cc(C)n1 [Compound 34, 4-[4-(4-Fluorophenyl)-2-(piperidin-4-yl)-1,3-thiazol-5-yl]-N-(2-methoxy-6-methylpyridin-4-yl)pyrimidin-2-amine Trifluoroacetate] | 95 |
| Cc1cc(Nc2nccc(-c3sc(C4CCNCC4)nc3C3CC3)n2)ccn1 [Compound 59, 4-(4-Cyclopropyl-2-(piperidin-4-yl)thiazol-5-yl)-N-(2-methylpyridin-4-yl)pyrimidin-2-amine Dihydrochloride] | 97 |

Target: hERG (Homo sapiens, UniProt Q12809)
Assay: not given
Conditions: not given

| SMILES | fold attenuation of hERG inhibitory activity [fold] |
| --- | --- |
| Cc1cc(Nc2nccc(-c3sc(C4CCNCC4)nc3C3CC3)n2)ccn1 [Compound 59, 4-(4-Cyclopropyl-2-(piperidin-4-yl)thiazol-5-yl)-N-(2-methylpyridin-4-yl)pyrimidin-2-amine Dihydrochloride] | 5 |

Test system: not listed separately
Assay: Cell cytotoxicity assay
Assay type: cell-based
Conditions: compared to 31

| SMILES | fold attenuation of cytotoxicity [fold] |
| --- | --- |
| Cc1cc(Nc2nccc(-c3sc(C4CCNCC4)nc3C3CC3)n2)ccn1 [Compound 59, 4-(4-Cyclopropyl-2-(piperidin-4-yl)thiazol-5-yl)-N-(2-methylpyridin-4-yl)pyrimidin-2-amine Dihydrochloride] | 2.5 |

Structures can show the parent of a compound that is named as a salt.
